Drawing on ChEMBL document CHEMBL6134768, “Design, synthesis, and structure-activity relationship studies of 6H-benzo[b]indeno[1,2-d]thiophen-6-one derivatives as DYRK1A/CLK1/CLK4/haspin inhibitors” (RSC Med Chem, 2025), this text covers CLH for three molecules.

For this data set the following is noted: rat, microsomes.
Molecule `O=C1c2ccccc2-c2c1sc1ccc(O)cc21` had a CLH of more than 500 µL/min/mg.

Regarding `COc1ccc2c(c1)C(=O)c1sc3ccc(O)cc3c1-2`, the CLH was more than 500 µL/min/mg.

For `COc1cccc2c1C(=O)c1sc3ccc(O)cc3c1-2`, the CLH was more than 500 µL/min/mg.
